Cells killed data for one compound are collected here from article PMC6941846 (Bioorganic & medicinal chemistry, 2019).

SMILES strings stand for the structures.

In this assay the test system is HEK293T cells. The following applies: inhibitor alone at 3 μM, 48 h.

For the compound `Cc1ccc(NC(=O)c2ccc(CN3CCN(C)CC3)cc2)cc1Nc1nccc(-c2cccnc2)n1` [Imatinib], the cells killed was found to be 12.5%.
